Measurements reported in patent publication US10604534B2, “C5-C6-oxacyclic fused iminothiadiazine dioxide compounds bearing an ether linker as BACE inhibitors, compositions, and their use” (Merck Sharp & Dohme Corp., priority 2016, dated 2020).

By UniProt entry, the sequences of proteins in these tests, tags left out. Residues count along the entry.
UniProt P56817, 75-416 limits assumed: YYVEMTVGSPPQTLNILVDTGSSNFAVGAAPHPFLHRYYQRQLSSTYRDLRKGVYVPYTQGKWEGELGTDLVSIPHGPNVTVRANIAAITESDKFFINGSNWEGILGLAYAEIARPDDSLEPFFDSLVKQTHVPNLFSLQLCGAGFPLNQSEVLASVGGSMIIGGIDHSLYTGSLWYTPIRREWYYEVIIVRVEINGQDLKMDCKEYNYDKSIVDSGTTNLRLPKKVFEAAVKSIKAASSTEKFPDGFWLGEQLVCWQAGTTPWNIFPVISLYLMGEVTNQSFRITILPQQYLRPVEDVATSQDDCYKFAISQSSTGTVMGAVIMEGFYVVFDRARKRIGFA
UniProt Q9Y5Z0, 63-473 limits assumed: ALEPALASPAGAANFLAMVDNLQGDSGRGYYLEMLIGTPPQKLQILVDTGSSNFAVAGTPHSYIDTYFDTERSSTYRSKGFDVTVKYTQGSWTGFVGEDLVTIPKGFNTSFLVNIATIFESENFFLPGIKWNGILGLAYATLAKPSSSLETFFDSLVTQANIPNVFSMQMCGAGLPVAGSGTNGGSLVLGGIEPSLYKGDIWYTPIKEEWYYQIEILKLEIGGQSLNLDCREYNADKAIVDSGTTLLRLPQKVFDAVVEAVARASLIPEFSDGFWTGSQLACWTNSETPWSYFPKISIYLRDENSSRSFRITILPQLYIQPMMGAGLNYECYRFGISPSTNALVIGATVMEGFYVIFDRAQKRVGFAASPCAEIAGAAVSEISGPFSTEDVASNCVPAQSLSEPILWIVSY

Assays:
[1] = biological target: soluble human BACE1 catalytic domain (Homo sapiens (Human), UniProt P56817); test: BACE1 HTRF FRET Assay; settings: read-out: BACE-1 Ki; Ki calculated from IC50 using the Cheng-Prusoff equation; QSY7-APPswe-Eu substrate, pH 5.0
Source text: • Reagents: Na^+-Acetate pH 5.0; 1% Brij-35; Glycerol; Dimethyl Sulfoxide (DMSO); Recombinant human soluble BACE1 catalytic domain (>95% pure); APP Swedish mutant peptide substrate (QSY7-APP^swe-Eu): QSY7-EISEVNLDAEFC-Europium-amide.
A homogeneous time-resolved FRET assay can be used to determine IC50 values for inhibitors of the soluble human BACE1 catalytic domain. This assay monitors the increase of 620 nm fluorescence that resulted from BACE1 cleavage of an APPswedish APP^swe mutant peptide FRET substrate (QSY7-EISEVNLDAEFC-Europium-amide). This substrate contains an N-terminal QSY7 moiety that serves as a quencher of the C-terminal Europium fluorophore (620 nm Em). In the absence of enzyme activity, 620 nm fluorescence is low in the assay and increased linearly over 3 hours in the presence of uninhibited BACE1 enzyme. Inhibition of BACE1 cleavage of the QSY7-APP^swe-Eu substrate by inhibitors is manifested as a suppression of 620 nm fluorescence.
Varying concentrations of inhibitors at 3× the final desired concentration in a volume of 10 ul are preincubated with purified human BACE1 catalytic domain (3 nM in 10 μl) for 30 minutes at 30° C. in reaction buffer containing 20 mM Na-Acetate pH 5.0, 10% glycerol, 0.1% Brij-35 and 7.5% DSMO. […]

[2] = biological target: purified human autoBACE-2 (Homo sapiens (Human), UniProt Q9Y5Z0); test: BACE-2 Assay (BACE-HTRF assay); settings: read-out: BACE-2 Ki; Ki calculated from IC50 using the Cheng-Prusoff equation; QSY7-EISEVNLDAEFC-Eu-amide substrate, pH 5.0
Description: Inhibitor IC50s at purified human autoBACE-2 are determined in a time-resolved endpoint proteolysis assay that measures hydrolysis of the QSY7-EISEVNLDAEFC-Eu-amide FRET peptide substrate (BACE-HTRF assay). BACE-mediated hydrolysis of this peptide results in an increase in relative fluorescence (RFU) at 620 nm after excitation with 320 nm light. Inhibitor compounds, prepared at 3× the desired final concentration in 1×BACE assay buffer (20 mM sodium acetate pH 5.0, 10% glycerol, 0.1% Brij-35) supplemented with 7.5% DMSO are preincubated with an equal volume of autoBACE-2 enzyme diluted in 1×BACE assay buffer (final enzyme concentration 1 nM) in black 384-well NUNC plates for 30 minutes at 30° C. […] Following laser excitation of sample wells at 320 nm, the fluorescence signal at 620 nm is collected for 400 ms following a […] on a RUBYstar HTRF plate reader (BMG Labtechnologies). […] IC50s are determined by nonlinear regression analysis (sigmoidal dose response, variable slope) of percent inhibition data with minimum and maximum values set to 0 and 100 percent respectively. […] The Ki values are calculated from the IC50 using the Cheng-Prusoff equation.

SMILES: COC[C@H]1C[C@@H]2[C@](c3cc(Oc4ccncc4F)ccc3F)(CO1)NC(=N)N(C)S2(=O)=O
- Ki [1]: 28 nM
- Ki [2]: 36 nM

SMILES: COc1cncc(Oc2ccc(F)c([C@]34CO[C@@H](C)C[C@H]3S(=O)(=O)N(C)C(=N)N4)c2)n1
- Ki [1]: 7.3 nM
- Ki [2]: 9.6 nM
